According to PMC8696161:

Test system: Nc1ncnc2c1ncn2[C@@H]1O[C@H](COP(=O)(O)OP(=O)(O)OP(=O)(O)O)[C@@H](O)[C@H]1O
Experiment: purified protein
Conditions: Mg acetate, Hepes pH 7.5, 25°C

Substance: MSMEG_1954 (Mycolicibacterium smegmatis MC2 155)
- Km: 231 µM
- kcat: 0.00864 s⁻¹
